# Measurements taken from US20240058464A1, “COMBINATION THERAPY WITH FOR46 FOR CANCER” (Fortis Therapeutics, Inc., priority 2021, published 2024).
# Legend:
# CD46 expression [1] = experiment: CD46 expression by RNA-sequencing in unpaired pre-treatment and post-treatment tumor biopsies; format: in vivo, human; conditions: post-treatment biopsies, RNA-seq log2-transformed normalized counts
# CD46 expression [2] = experiment: CD46 expression by RNA-sequencing in paired tumor biopsies before and after therapy; conditions: RNA-seq log2-transformed counts;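 further: FFPE human tumor biopsies, exome-capture RNA-seq, reads aligned to GRCh37, counts normalized for GC content, length and depth, summed per gene, log2-transformed, samples paired before versus after therapy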
smiles,measurement,setting,value
CC(O)(CS(=O)(=O)c1ccc(F)cc1)C(=O)Nc1ccc(C#N)c(C(F)(F)F)c1 (centres unmarked) [bicalutamide],CD46 expression Post,CD46 expression [1]; Prostate Cancer,6.13
C[C@]12CC[C@H](O)CC1=CC[C@@H]1[C@@H]2CC[C@]2(C)C(c3cccnc3)=CC[C@@H]12 [abiraterone],"CD46 expression, Post-Treatment Biopsy",CD46 expression [2]; Prostate Cancer,6.03
CC(=O)O[C@@]12CO[C@@H]1C[C@H](O)[C@@]1(C)C(=O)[C@H](O)C3=C(C)[C@@H](OC(=O)[C@H](O)[C@@H](NC(=O)OC(C)(C)C)c4ccccc4)C[C@@](O)([C@@H](OC(=O)c4ccccc4)[C@H]21)C3(C)C [docetaxel],CD46 expression Post,CD46 expression [1]; Non-Small Cell Lung Cancer,6.13
COc1cccc2c1C(=O)c1c(O)c3c(c(O)c1C2=O)C[C@@](O)(C(=O)CO)C[C@@H]3O[C@H]1C[C@H](N)[C@H](O)[C@H](C)O1 [doxorubicin],CD46 expression Post,CD46 expression [1]; Breast Cancer,6.05
O=C1[O][Pt]2([NH][C@@H]3CCCC[C@H]3[NH]2)[O]C1=O [oxaliplatin],CD46 expression Post,CD46 expression [1]; Pancreatic Cancer,5.78
CCCCCOC(=O)Nc1nc(=O)n([C@@H]2O[C@H](C)[C@@H](O)[C@H]2O)cc1F [capecitabine],"CD46 expression, Post-Treatment Biopsy",CD46 expression [2]; Colorectal Cancer,6.31
N.N.[Cl][Pt][Cl] [cisplatin],"CD46 expression, Post-Treatment Biopsy",CD46 expression [2]; Bladder Cancer,6.25
same,"CD46 expression, Pre-Treatment Biopsy",CD46 expression [2]; Non-Small Cell Lung Cancer,6.31
